Laboratory results taken from patent publication US20220024982A1 (Bicycle, published 2022).

What was measured:
[1] = molecular target: T1, MT1-MMP Hemopexin domain (PEX) (UniProt P50281 319-511); assay: FP competition vs tracer 17-88-226-N002
T1 construct: domain: Hemopexin domain (PEX); Target of the fluorescence polarisation assays; also called hemopexin of MT1-MMP; MMP14
Procedure: (§1) Subsequently, the non-fluorescent competitor bicyclic peptide (usually just the bicycle core sequence) is titrated, such that it displaces the fluorescent tracer from the target protein. The displacement of the tracer is measured and associated with a drop in fluorescence polarisation. The drop in fluorescence polarisation is proportional to the fraction of target protein bound with the non-fluorescent titrant, and thus is a measure of the affinity of titrant to target protein.
(§2) The raw data is fit to the analytical solution of the cubic equation that describes the equilibria between fluorescent tracer, titrant, and binding protein. The fit requires the value of the affinity of fluorescent tracer to the target protein, which can be determined separately by direct binding FP experiments (see previous section).

[2] = molecular target: T2, human MT1 MMP14 protein, hemopexin domain (obtained from Merck Millipore) (human, UniProt P50281 319-511, limits assumed, randomly biotinylated (EZ-Link Sulfo-NHS-LC-LC-Biotin)); assay: SPR, biotinylated target on streptavidin chip
T2 construct: domain: hemopexin domain; Target of the SPR assay, captured on streptavidin; also called biotinylated MT1 MMP14
Procedure: Biacore experiments were performed to determine KD (nM) values of monomeric peptides binding to human MT1 MMP14 protein, hemopexin domain (obtained from Merck Millipore).
For analysis of peptide binding, a Biacore 3000 instrument was used utilising a CM5 chip (GE Healthcare). Streptavidin was immobilized on the chip using standard amine-coupling chemistry at 25° C. with HBS-N (10 mM HEPES, 0.15 M NaCl, pH 7.4) as the running buffer. Briefly, the carboxymethyl dextran surface was activated with a 7 minute injection of a 1:1 ratio of 0.4 M 1-ethyl-3-(3-dimethylaminopropyl) carbodiimide hydrochloride (EDC)/0.1 M N-hydroxy succinimide (NHS) at a flow rate of 10 μl/min. For capture of streptavidin, the protein was diluted to 0.2 mg/ml in 10 mM sodium acetate (pH 4.5) and captured by injecting 120 μl of streptavidin onto the activated chip surface. Residual activated groups were blocked with a 7 minute injection of 1 M ethanolamine (pH 8.5) and biotinylated MT1 MMP14 captured to a level of 1,200-1,800 RU. Buffer was changed to PBS/0.05% Tween 20 and a dilution series of the peptides was prepared in this buffer with a final DMSO concentration of 0.5%. The top peptide concentration was 100 nM with 6 further 2-fold dilutions. […]

[3] = molecular target: T1, MT1-MMP Hemopexin domain (PEX); assay: FP competition vs tracer 17-69-07-N041
Excerpt: Here, a pre-formed complex of PEX with the fluorescent PEX-binding tracer is titrated with free, non-fluoresceinated bicyclic peptide. Since all 17-69-based peptides are expected to bind at the same site, the titrant will displace the fluorescent tracer from PEX. Dissociation of the complex can be measured quantitatively, and the Kd of the competitor (titrant) to the target protein determined. The advantage of the competition method is that the affinities of non-fluoresceinated bicyclic peptides can be determined accurately and rapidly.
as §1, §2

[4] = molecular target: T1, MT1-MMP Hemopexin domain (PEX); assay: FP competition, plate 2, tracer not named
[5] = molecular target: T1, MT1-MMP Hemopexin domain (PEX); assay: FP competition vs tracer 17-88-N006
Procedure: as §1, §2

[6] = molecular target: T1, MT1-MMP Hemopexin domain (PEX); assay: FP competition, plate 1, tracer not named

| Kd [1] [nM] | Kd [2] [nM] | Kd [3] [nM] | Ki [4] [nM] | Kd [5] [nM] | Ki [6] [nM] | Binder |
| --- | --- | --- | --- | --- | --- | --- |
| 18.6 | 15.1 | – | – | – | – | ALPPCVRECALLFPKTC (N-terminal acetyl; 3 Cys linked to TATA scaffold, also called BCY1125) [Ac-(17-120-09-T03)] |
| – | – | 2300 | – | – | – | ACPELCVDLYPHCA (3 Cys linked to TATA scaffold) [17-111-02] |
| – | – | 1800 | – | – | – | ACPDLCLDLFPNCA (3 Cys linked to TATA scaffold) [17-111-01] |
| 32 | 14.8 | – | 107 | 35.6 | 78 | ALPPCVRECALLFPKTCA (3 Cys linked to TATA scaffold, also called BCY1124) [17-120-09-T03] |
